# AlphaSeq binding of Ab-14 light chain variants to a spike HR2 peptide

Values reported by Li et al. 2023, doi:10.1038/s41467-023-39022-2 (FLAb copy).

All variants were tested on one target, the spike HR2 peptide PDVDLGDISGINAS (SARS-CoV-2).

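The parent was found by panning a naive human phage display library on the peptide. Designed CDR sequences, proposed from the first random library and measured here. Several design methods are mixed in this list. The scFvs were displayed on barcoded MATa yeast, the peptide on MATalpha yeast. The frequency of each diploid, read from paired DNA barcodes, reflects how well the two displayed proteins bind. Read counts were normalised to the haploid input and turned into Kd by a linear fit to BCL2-family pairs of known affinity, for each replicate. Mating was done six times.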

Parent: Ab-14, a human scFv built as VH, a 15-residue (Gly4Ser)3 linker, VL. Only the CDRs of the light chain vary.
VH: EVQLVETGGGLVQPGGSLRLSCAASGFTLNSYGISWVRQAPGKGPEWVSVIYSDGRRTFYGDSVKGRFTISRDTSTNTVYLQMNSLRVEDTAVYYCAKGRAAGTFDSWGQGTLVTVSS
VL: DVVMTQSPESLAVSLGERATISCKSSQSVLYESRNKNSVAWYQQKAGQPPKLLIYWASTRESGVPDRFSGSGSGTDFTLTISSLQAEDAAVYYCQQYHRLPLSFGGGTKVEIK

Positions count from residue 1 of the parent VL; L30E puts E in place of L.
Variants here have at most six changes.
Each Kd is an estimate from the mating assay, the geometric mean of the replicates in which the pair was seen; lower is stronger.
A pair that was not seen in any replicate is written "nd"; this usually means weak binding, but a binder can also be missed.
Of ten entries with the parent sequence, four were seen in most replicates (averages 2.2 nM to 240 nM), three in one and three in none, so single entries are noisy.
The range of this assay differs from that of the first round, and the authors advise against merging the two.
The authors averaged sequences with at least three values out of six and counted those with two or fewer as poor binders.
Nonspecific signal, from three strains lacking the peptide, appeared in 4% of pairings of all light chain designs, centred on 430 nM (5% of these signals below 38 nM); values are not corrected for it.

changes,Kd,replicates with signal
L30E Y31M S38N W56D T59Q,1.2 nM,6/6
S25L S26P W56N S62E,440 pM,6/6
S25L V29M N35V W56N,600 pM,6/6
Q27N N35Y K36Y W56E,4.1 nM,6/6
S25V S33A R34H S103Y,21 nM,6/6
K24R W56N,3.3 nM,6/6
S25V Q27G V29H W56E,450 pM,6/6
S25L S26I W56N,190 pM,6/6
S25L L30M W56E T59Q,860 pM,6/6
S25L V29F W56N T59Y,1.4 nM,4/6
S25L Q27E Y31M N35W W56D S62E,2.0 nM,6/6
R34P W56G,780 pM,6/6
S25L S38N W56H S62Q,650 pM,6/6
S25F S28K E32S S33D N35T W56N,1.6 nM,6/6
S33M S58N E61C Y97Q,43 nM,1/6
R34T N35G,8.5 nM,6/6
S26A Q27Y V29E R34A W56S S58N,3.0 nM,6/6
Q27D S28V V29Y W56G,1.2 nM,6/6
K24H Q27P W56N S103M,nd,0/6
Y97G S103R,nd,0/6
Q27E S28E K36Q,17 nM,6/6
S25L L100P,1.2 nM,6/6
S25L L30D N35Q W56N S58Q,1.4 nM,6/6
S25D V29W W56Q H98Q,17 nM,6/6
K36L T59C Q95N,3.7 µM,1/6
S25L S26M V29E W56N S62D,900 pM,6/6
S25V N35F W56N,1.3 nM,6/6
S25F Q27M V29F W56G,510 pM,6/6
S25L Q27P Y31P K36N W56K S62Q,4.2 nM,6/6
Y31A W56D T59Y Y97P H98D,nd,0/6
S25L S26P W56E E61S,460 pM,6/6
S25L S26Q L30P W56N E61C,14 nM,6/6
S25V S26Q V29W L30P W56E,410 pM,6/6
S25F V29Y W56N T59Q,2.2 nM,6/6
R34T N35D W56D T59Q S62A,1.0 nM,6/6
S25L S26R V29T K36P W56D,1.4 nM,6/6
S25L V29E W56N T59Q E61L Q96D,1.3 nM,6/6
W56H Q95T R99E L100E,nd,0/6
S25L S26E V29C L30N W56N,560 pM,6/6
S25W L30D W56N A57G,3.0 nM,6/6
S25T S26P W56G T59V,610 pM,6/6
V29G L30S W56H S58T,1.7 nM,6/6
Q27N E32I R34S R99H,nd,0/6
S25I S26P S62V H98S,600 pM,6/6
S25L R34V L100D S103P,8.8 nM,6/6
Q27I V29Y Y31T K36E W56E S62Q,5.8 nM,6/6

A selection of 7 entries from above:

changes,Kd,replicates with signal
L30E Y31M S38N W56D T59Q,1.2 nM,6/6
K24H Q27P W56N S103M,nd,0/6
S25L L30D N35Q W56N S58Q,1.4 nM,6/6
K24R W56N,3.3 nM,6/6
S25V S33A R34H S103Y,21 nM,6/6
S25F S28K E32S S33D N35T W56N,1.6 nM,6/6
Q27N N35Y K36Y W56E,4.1 nM,6/6